Results reported in patent US20100068793A1, “DEVICES AND METHODS FOR PRODUCTION OF CELL AGGREGATES” (priority 2007, published 2010).

Tested on: hESC
Test: Aggregate formation from hESC cultured on Matrigel after BMP pre-differentiation
Format: cell-based, human
Conditions: 25 ng/mL BMP2 pre-differentiation, control without BMP2 formed no aggregates
Procedure: b) for 48 hours prior to harvesting, replace growth medium with X-Vivo10+25 ng/mL BMP2; or
3. Prepare a single-cell suspension by treating the hESC culture with TrypIE for 5 minutes, and washing the cells off with X-Vivo10
4. Count cells, spin down and re-suspend to 1 million cells/mL in X-Vivo or other medium of interest. Cells may all derive from a single culture, or cells from different sources may be combined.
5. Suspend cells in X-vivo10 or other medium of interest at a concentration appropriate to the desired EB size and plate format (e.g. to form aggregates from 10,000 cells in 100 μL medium each in 96-well plates, suspend 1 million cells in 10 mL; for aggregates from 2,000 cells in 25 μL medium each in 384-well plates, suspend 0.8 million cells in 10 mL. NB multichannel pipettes or automated liquid handling systems often require a minimum “dead volume”, thus it may be necessary to make 10-20% additional volume of suspension depending on the specifics of the equipment employed.
6. Dispense the cell suspension into the well plates prepared in step 2.
7. Centrifuge for 5 minutes at 240×g
8. Incubate overnight at 37 degrees, 5% CO2 in a standard tissue culture incubator.
9. Recover EBs by pipetting using large-bore or cut-off pipette tips or by inverted centrifugation in the device described and illustrated in FIG. 1 or 2 for 1 minute at 20×g […]

## BMP2: Bone Morphogenetic Protein-2, growth factor used for pre-differentiation (R&D Systems)
  stable aggregate formation after BMP2 pre-differentiation: Aggregates formed from the pre-differentiated population
